Only a part is listed here, and it is no random draw. The source holds several records for some structures; these can differ, active in one and inactive in another. The source made the active and inactive calls. Rule as the data show it: active = growth inhibition above about 70%; inactive = the rest.
Assay: NCI Yeast Anticancer Drug Screen. Data for the CLN2oe strain (AID 163);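 also: 0% = growth of vehicle-only control cultures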
Conditions: S. cerevisiae CLN2oe strain, active compounds read high
Description: Growth inhibition of yeast strains with defined genetic alterations is measured as a screen for potential anti-cancer activity. Selected strains with alterations in DNA damage repair or cell cycle control were exposed to compounds and growth inhibition was measured relative to vehicle treated controls. The strain used in this assay is CLN2oe

Measured: growth inhibition

ClCCN1CCCCC1CCl (stereo not given)
inactive: at 1.2 µM -1% | at 3.7 µM -5% | at 11.0 µM -1% | at 33.0 µM -1% | at 100.0 µM 27%

COc1ccc([N+](=O)[O-])c(C[N+](C)(CCCl)CCCl)c1
inactive: at 1.2 µM 2% | at 3.7 µM 0% | at 11.0 µM -4% | at 33.0 µM 6% | at 100.0 µM 20%

Cc1cccc(C[N+](C)(CCCl)CCCl)c1[N+](=O)[O-]
inactive: at 1.2 µM 10% | at 3.7 µM -8% | at 11.0 µM 2% | at 33.0 µM 20%
active: at 100.0 µM 70%

Cc1ccc([N+](=O)[O-])c(C[N+](C)(CCCl)CCCl)c1
inactive: at 1.2 µM -15% | at 3.7 µM -8% | at 11.0 µM -8% | at 33.0 µM 6% | at 100.0 µM 66%

COc1ccc(C[N+](C)(CCCl)CCCl)c([N+](=O)[O-])c1
inactive: at 1.2 µM -2% | at 3.7 µM -6% | at 11.0 µM -4% | at 33.0 µM -3% | at 100.0 µM 3%

Cn1cnc([N+](=O)[O-])c1C[N+](C)(CCCl)CCCl
inactive: at 1.2 µM -29% | at 3.7 µM -36% | at 11.0 µM -12% | at 33.0 µM 14% | at 100.0 µM 50%
